Results as given in US3956398A, “Bis-monoperoxyacetals and -ketals” (dated 1976).

With `CC(OOC(C)(C)C)OC(C)OOC(C)(C)C` (centres unmarked) the “Curing Half-Life (320°F.)” value (320°F., amount of peroxide used differs by line (1.26-2.74 parts)) was 4.1 min and the “Curing Half-Life, 330°F. half-life” value (330°F., amount of peroxide used differs by line (4.2-6.4 parts)) was 2.1 min and 1.4 min.

Values joined by “and” are separate entries in the source; they are usually repeats but may differ in a detail not shown here. Identical values can stand only once.
